Measurements as given in US20200071380A1, “COMBINATION THERAPIES COMPRISING SIRP ALPHA-BASED CHIMERIC PROTEINS” (Shattuck Labs, Inc., priority 2018, published 2020).

Test system: low Her2-expressing breast cancer cell line (MCF7)
Test: Macrophage engulfment of MCF7 cells
Type: cell-based, human
Conditions: HER2LOW cell line MCF7

With “trastuzumab: anti-Her2 antibody [reference compound]” the phagocytosis was “did not induce phagocytosis”.
